Data as given in patent EP4840874A1, “NOVEL PEPTIDE HAVING ACTIVITIES OF INHIBITING MUSCLE LOSS AND PROMOTING MUSCLE GROWTH, AND USES THEREOF” (dated 2026).

Legend:
C2C12 myoblasts [1] = assay: Muscle protein synthesis-related gene expression (RT-PCR); conditions: 5 or 50 µM, 3 days differentiation
Protocol: To determine the effect of the peptide prepared in Preparation Example 1 on the expression of genes related to muscle protein synthesis, the expression levels of signaling gene markers related to muscle protein synthesis in myoblasts were evaluated through RT-PCR analysis.
C2C12 cells (mouse myoblast line) were cultured in DMEM medium containing 1% P/S and 2% BCS. When cell confluency reached approximately 70 to 80%, cells were seeded into 6-well culture plates at a density of 5 x 10^5 cells/well with 2 ml aliquots. Subsequently, when cell confluency reached 100%, the medium was replaced with differentiation medium (1% P/S, 2% horse serum), and the peptide of SEQ ID NO: 1 was added at a concentration of 5 µM or 50 µM. Subsequently, the differentiation medium and peptide of SEQ ID NO: 1 were replaced every two days, and cells were harvested three days after the first replacement to extract RNA using Trizol (Thermo Fisher Scientific, USA). DNA complementary to the extracted RNA was obtained using TOPScript™ RT DryMIX (enzynomics, Korea), and then polymerase chain reaction (PCR) was performed on signaling genes related to muscle protein synthesis using TOPsimple™ DryMIX-nTaq (enzynomics, Korea). The mRNA expression levels of the markers were then compared under each sample treatment condition by running the samples on a 1.5% agarose gel. The primer sequences of the genes used in the experiment and the primer sequence of the GAPDH gene as a control are shown in Table 3.

C2C12 myoblasts [2] = assay: Differentiation-related protein expression in dexamethasone atrophy-induced myoblasts (Western blot); conditions: 5 or 50 µM pretreatment 30 minutes, then dexamethasone 24 hours
Protocol: Western blot analysis was used to evaluate whether the peptide prepared in Preparation Example 1 could restore the expression levels of differentiation-related proteins that were reduced in myoblasts with induced muscle atrophy.
C2C12 cells (mouse myoblast line) were cultured in DMEM medium containing 1% P/S and 2% BCS. When cell confluency reached approximately 70 to 80%, cells were seeded into 6-well culture plates at a density of 5 x 10^5 cells/well by 2 ml. Subsequently, when cell confluency reached 100%, the medium was replaced with differentiation medium (1% P/S, 2% horse serum) to induce differentiation. Subsequently, the differentiation medium was replaced every two days, and on the fourth day of differentiation induction, the cells were pretreated with the peptide of SEQ ID NO: 1 at a concentration of 5 µM or 50 µM for 30 minutes. Next, the cells were treated with soluble dexamethasone (Sigma, USA) and cultured for 24 hours to induce an atrophy environment. After culture, lysis buffer was added to lyse the cells, which was then centrifuged at 4°C and 12,000 rpm for 30 minutes to obtain the protein, which were then quantified using a BCA kit. SDS-PAGE was performed on the protein, and the protein was electrotransferred onto the membrane. […]

CC(C)[C@H](NC(=O)[C@@H](NC(=O)[C@@H](N)CC(=O)O)[C@@H](C)O)C(=O)N[C@@H](CCC(=O)O)C(=O)N[C@@H](CC(N)=O)C(=O)O
mRNA expression level of AKT (C2C12 myoblasts [1]): significantly increased in a peptide concentration-dependent manner
mRNA expression level of IGF-1 (C2C12 myoblasts [1]): significantly increased in a peptide concentration-dependent manner
mRNA expression level of P70S6K (C2C12 myoblasts [1]): significantly increased in a peptide concentration-dependent manner
mRNA expression level of SIRT1 (C2C12 myoblasts [1]): significantly increased in a peptide concentration-dependent manner
mRNA expression level of mTOR (C2C12 myoblasts [1]): significantly increased in a peptide concentration-dependent manner
protein expression level of MyoD reduced by dexamethasone (C2C12 myoblasts [2]): restored in a peptide concentration-dependent manner
protein expression level of α-actinin reduced by dexamethasone (C2C12 myoblasts [2]): restored in a peptide concentration-dependent manner
